Results: US20250049946A1, “SULFONATO RESORCINARENE-COMPLEXED FLUOROQUINOLONES AND METHODS OF USE” (University of Cincinnati, priority 2023, published 2025)

Test: partition coefficient (Ko/w) n-octanol / phosphate buffer
Format: physicochemical
Conditions: octanol / phosphate buffer pH 7.4, 25 °C, 24 h; complexes with 10 times higher host stock

With `CCn1cc(C(=O)O)c(=O)c2cc(F)c(N3CCNCC3)cc21` [NOR, norfloxacin] as the compound, how does the “log P (experimental partition coefficient Ko/w)” value read?
Its value is −2.07.
